These results are taken from patent US5145854A, “1-formyl-5,8,10-trideazafolates” (priority 1991, dated 1992).

This assay addresses T1, hog liver glycinamide ribonucleotide formyltransferase (GARFTase) (Sus scrofa, UniProt A0A8W4FJW8).
T1 construct: hog liver glycinamide ribonucleotide formyltransferase; from tissue; host or cells: hog liver
T1 sequence (A0A8W4FJW8 1-1009): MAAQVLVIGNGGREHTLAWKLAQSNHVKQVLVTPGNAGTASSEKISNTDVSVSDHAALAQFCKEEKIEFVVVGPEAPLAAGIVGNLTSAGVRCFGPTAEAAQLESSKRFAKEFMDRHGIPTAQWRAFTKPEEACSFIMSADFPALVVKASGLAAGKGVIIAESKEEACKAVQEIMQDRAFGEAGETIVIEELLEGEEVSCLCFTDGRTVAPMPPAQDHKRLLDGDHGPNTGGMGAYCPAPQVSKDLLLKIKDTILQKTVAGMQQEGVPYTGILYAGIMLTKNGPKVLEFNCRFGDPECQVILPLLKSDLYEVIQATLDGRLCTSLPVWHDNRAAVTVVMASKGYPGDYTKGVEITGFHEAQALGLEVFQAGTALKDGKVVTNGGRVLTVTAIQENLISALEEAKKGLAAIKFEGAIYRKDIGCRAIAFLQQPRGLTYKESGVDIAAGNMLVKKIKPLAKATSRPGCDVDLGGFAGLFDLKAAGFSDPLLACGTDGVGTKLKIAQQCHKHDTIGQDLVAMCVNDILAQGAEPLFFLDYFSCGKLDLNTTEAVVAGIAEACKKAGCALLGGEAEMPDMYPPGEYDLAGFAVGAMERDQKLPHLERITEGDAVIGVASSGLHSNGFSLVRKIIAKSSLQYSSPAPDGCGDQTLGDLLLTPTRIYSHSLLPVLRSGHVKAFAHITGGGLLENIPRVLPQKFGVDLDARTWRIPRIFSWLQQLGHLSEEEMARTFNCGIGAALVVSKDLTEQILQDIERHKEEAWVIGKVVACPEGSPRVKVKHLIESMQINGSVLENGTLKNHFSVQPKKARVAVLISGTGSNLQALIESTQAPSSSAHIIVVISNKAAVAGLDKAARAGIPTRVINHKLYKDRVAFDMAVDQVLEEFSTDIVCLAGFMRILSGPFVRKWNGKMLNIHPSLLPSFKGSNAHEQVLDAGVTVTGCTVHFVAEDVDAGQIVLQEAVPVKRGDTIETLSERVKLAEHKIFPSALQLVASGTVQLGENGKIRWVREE
Nature of the assay: Inhibition of hog liver glycinamide ribonucleotide formyltransferase. It is filed as biochemical. An excerpt: The representative compound of the present invention is 10-formyl-5,8,10-trideazatetrahydrofolic acid (FTDF) having the formula 1.

pIC50: −log10 of the molar value.

By pIC50 is commonly meant −log10 of the IC50, conventionally taken in molar units. Low readings indicate a high IC50, high ones a low IC50. `Nc1nc2c(c(=O)[nH]1)CC(CCc1ccc(C(=O)N[C@@H](CCC(=O)O)C(=O)O)cc1)CN2` (stereo partly shown) [DDATHF, 5,10-dideazatetrahydrofolic acid] gave a negative logarithm of the IC50 (pIC50) of 6.66.
